The numbers were not newly measured in US20220125837A1, “METHODS FOR CONTROLLED ELIMINATION OF THERAPEUTIC CELLS” (Bellicum Pharmaceuticals, Inc., priority 2014, published 2022), which cites them from elsewhere.

Protein sequences, listed by entry. Tags and fused reporters are not part of them. Lines headed by an entry give the natural chain unless they say otherwise; changes in a name come on top.
UniProt P62942: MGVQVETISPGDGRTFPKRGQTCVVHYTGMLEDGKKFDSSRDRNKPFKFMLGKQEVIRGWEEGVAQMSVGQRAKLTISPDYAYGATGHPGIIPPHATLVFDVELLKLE

Usually EC50 stands for the concentration at which the effect is half-maximal.

For data set [1], the target named is wt FRB (K2095 T2098 W2101) (Homo sapiens, UniProt P42345+P62942). To be noted: cited from earlier work.
A further data set deals with FRB-KLW (Homo sapiens, UniProt P42345+P62942, T2098L). The conditions noted are these: cited from earlier work.

Turning to S-o,p-dimethoxyphenyl (DMOP)-rapamycin, the results for the EC50 (in data set [1]; at FRB-KLW) were about 1000 nM and about 5 nM, respectively.
